{
  "source": "patent US5844001A",
  "about": "“Combination platinum chemotherapeutic/antiestrogen therapy for human cancers” (Research Development Foundation, priority 1994, dated 1998)",
  "test_system": "2008 ovarian carcinoma cells",
  "test": "Development of DDP resistance with or without TAM, 2008 (colony formation)",
  "format": "cell-based, human",
  "details": "TAM given concurrently, in words, listed as TAM",
  "note": "“Also recorded” adds a separate entry of the source.",
  "data": [
    {"molecule": "CC/C(=C(\\c1ccccc1)c1ccc(OCCN(C)C)cc1)c1ccccc1", "note": "[tamoxifen]", "values": [
      {"measurement": "effect on development of DDP resistance", "value": "delay the development of DDP resistance; also recorded: reduced by TAM in each of the 3 repeats"}
    ]}
  ]
}
